Earlier results, collected in patent US8829187B1.

Test system: rabbit fetuses
Conditions: rabbit fetuses under hypoxic conditions

Compound: Cc1cc(N)nc(C[C@@H]2CNC[C@@H]2OCCNCCc2cccc(F)c2)c1
- neurological damage to rabbit fetuses: remarkable reduction in neurological damage
